For 1 compound, IC50 results are on record in ChEMBL document CHEMBL1147965, “Dual irreversible kinase inhibitors: quinazoline-based inhibitors incorporating two independent reactive centers with each targeting different cysteine residues in the kinase domains of EGFR and VEGFR-2” (Bioorg Med Chem, 2007).

Amino acid sequences for entries named in this document (tags omitted).
UniProt P35968, whole entry: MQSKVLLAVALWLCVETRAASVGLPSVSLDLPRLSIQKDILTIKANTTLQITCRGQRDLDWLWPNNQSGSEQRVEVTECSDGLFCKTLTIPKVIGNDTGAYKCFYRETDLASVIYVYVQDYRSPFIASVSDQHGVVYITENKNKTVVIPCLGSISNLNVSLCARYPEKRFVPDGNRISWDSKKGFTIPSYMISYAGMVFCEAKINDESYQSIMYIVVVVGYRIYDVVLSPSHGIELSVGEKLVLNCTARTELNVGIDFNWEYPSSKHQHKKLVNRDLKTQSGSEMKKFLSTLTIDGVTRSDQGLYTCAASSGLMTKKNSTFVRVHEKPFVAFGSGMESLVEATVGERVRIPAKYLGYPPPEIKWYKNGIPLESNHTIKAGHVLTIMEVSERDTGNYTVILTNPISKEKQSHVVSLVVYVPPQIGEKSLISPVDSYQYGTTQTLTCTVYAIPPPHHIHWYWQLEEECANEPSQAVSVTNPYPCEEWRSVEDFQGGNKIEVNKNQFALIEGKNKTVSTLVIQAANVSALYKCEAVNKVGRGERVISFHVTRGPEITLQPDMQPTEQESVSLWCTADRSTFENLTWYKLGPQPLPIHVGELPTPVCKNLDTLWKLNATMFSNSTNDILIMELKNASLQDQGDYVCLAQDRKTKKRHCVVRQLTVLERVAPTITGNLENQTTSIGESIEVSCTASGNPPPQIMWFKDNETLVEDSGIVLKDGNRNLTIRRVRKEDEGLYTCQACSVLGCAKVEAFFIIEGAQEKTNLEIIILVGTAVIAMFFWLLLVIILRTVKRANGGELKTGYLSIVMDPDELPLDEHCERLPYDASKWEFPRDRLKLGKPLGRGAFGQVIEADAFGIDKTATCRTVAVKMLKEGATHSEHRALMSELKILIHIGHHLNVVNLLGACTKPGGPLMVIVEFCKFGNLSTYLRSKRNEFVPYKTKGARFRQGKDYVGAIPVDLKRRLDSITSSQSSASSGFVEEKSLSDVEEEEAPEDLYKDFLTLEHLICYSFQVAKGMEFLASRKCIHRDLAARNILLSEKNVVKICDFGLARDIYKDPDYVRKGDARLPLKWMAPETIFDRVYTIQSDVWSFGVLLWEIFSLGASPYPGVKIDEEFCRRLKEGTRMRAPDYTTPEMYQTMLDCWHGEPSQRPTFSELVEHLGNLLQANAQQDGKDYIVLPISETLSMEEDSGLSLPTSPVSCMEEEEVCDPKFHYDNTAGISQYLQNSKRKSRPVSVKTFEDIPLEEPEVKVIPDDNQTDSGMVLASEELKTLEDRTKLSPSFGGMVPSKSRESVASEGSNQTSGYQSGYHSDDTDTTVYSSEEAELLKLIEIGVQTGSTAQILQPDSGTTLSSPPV

A word on the IC50: it is the concentration that inhibits the measured activity by half. Lower therefore signals inhibition by little substance.

The target of this test is Vascular endothelial growth factor receptor 2 (Homo sapiens, UniProt P35968).

`CN(C)C/C=C/C(=O)Nc1ccc2ncnc(Nc3ccc(Br)cc3F)c2c1` had an IC50 of 4.39 µM.
